Reference: patent publication US20170022260A9 (Sanofi, priority 2013, published 2017)
In brackets after ≈: the same amount, converted by molar mass.

Chains of the proteins cited; added tags and fusions are not shown. Residues count along the entry.
UniProt P43220, 24-463: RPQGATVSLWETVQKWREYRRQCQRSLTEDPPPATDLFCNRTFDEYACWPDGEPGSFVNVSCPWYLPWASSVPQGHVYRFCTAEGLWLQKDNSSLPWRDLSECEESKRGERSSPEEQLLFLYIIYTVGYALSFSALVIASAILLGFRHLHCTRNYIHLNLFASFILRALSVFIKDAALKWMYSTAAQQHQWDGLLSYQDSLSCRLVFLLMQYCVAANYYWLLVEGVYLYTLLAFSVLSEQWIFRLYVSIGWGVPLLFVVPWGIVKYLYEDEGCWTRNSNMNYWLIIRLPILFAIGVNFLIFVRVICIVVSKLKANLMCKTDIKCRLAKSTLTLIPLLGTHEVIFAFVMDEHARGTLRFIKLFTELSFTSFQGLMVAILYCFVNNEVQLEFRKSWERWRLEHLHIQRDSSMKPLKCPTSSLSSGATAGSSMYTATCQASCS

Legend:
physchem = assay type: physicochemical
From the text: As HPLC/UPLC method, method D or E has been used.

[1] = molecular target: T1, human GLP-1 receptor (hGLP-1 R) (Homo sapiens, UniProt P43220); experiment: cAMP response of HEK-293 cells expressing human GLP-1 receptor (HTRF); assay type: cell-based; settings: cAMP formation
T1 construct: expressed in transfected cells

SMILES	solubility at 2 h (physchem; pH 4.5, solubility pH 4.5) [µg/mL]	solubility at 2 h (physchem; pH 7.4, solubility pH 7.4) [µg/mL]	EC50 [1] [pM]
CC[C@H](C)[C@H](NC(=O)[C@H](CC(C)C)NC(=O)[C@H](Cc1c[nH]c2ccccc12)NC(=O)[C@H](CCC(=O)O)NC(=O)[C@@H](NC(=O)[C@H](Cc1ccccc1)NC(=O)[C@H](CC(=O)O)NC(=O)[C@H](CCCCN)NC(=O)[C@H](C)NC(=O)[C@H](CCCNC(=N)N)NC(=O)[C@H](CCC(N)=O)NC(=O)[C@H](CCC(=O)O)NC(=O)[C@H](CC(=O)O)NC(=O)[C@H](CC(C)C)NC(=O)[C@H](CCC(N)=O)NC(=O)[C@H](CCCCN)NC(=O)[C@H](CO)NC(=O)[C@H](CC(C)C)NC(=O)[C@H](CC(=O)O)NC(=O)[C@H](CO)NC(=O)[C@@H](NC(=O)[C@H](Cc1ccccc1)NC(=O)[C@@H](NC(=O)CNC(=O)[C@H](Cc1c[nH]cn1)NC(=O)C(C)(C)NC(=O)[C@@H](N)Cc1c[nH]cn1)[C@@H](C)O)[C@@H](C)O)[C@@H](C)CC)C(=O)N[C@@H](C)C(=O)NCC(=O)NCC(=O)N1CCC[C@H]1C(=O)N[C@@H](CO)C(=O)N[C@@H](CO)C(=O)NCC(=O)N[C@@H](C)C(=O)N1CCC[C@H]1C(=O)N1CCC[C@H]1C(=O)N1CCC[C@H]1C(=O)N[C@@H](CO)C(N)=O [compound 10]	950 (≈ 228 µM)	710 (≈ 171 µM)	–
CC[C@H](C)[C@H](NC(=O)[C@H](CC(C)C)NC(=O)[C@H](Cc1c[nH]c2ccccc12)NC(=O)[C@H](CCC(=O)O)NC(=O)[C@@H](NC(=O)[C@H](Cc1ccccc1)NC(=O)[C@H](CC(=O)O)NC(=O)[C@H](CCC(N)=O)NC(=O)[C@H](C)NC(=O)[C@H](CCCNC(=N)N)NC(=O)[C@H](CCC(N)=O)NC(=O)[C@H](CCC(=O)O)NC(=O)[C@H](CC(=O)O)NC(=O)[C@H](CC(C)C)NC(=O)[C@H](CCC(N)=O)NC(=O)[C@H](CCCCN)NC(=O)[C@H](CO)NC(=O)[C@H](CC(C)C)NC(=O)[C@H](CC(=O)O)NC(=O)[C@H](CO)NC(=O)[C@@H](NC(=O)[C@H](Cc1ccccc1)NC(=O)[C@@H](NC(=O)CNC(=O)[C@H](CCC(N)=O)NC(=O)C(C)(C)NC(=O)[C@@H](N)Cc1c[nH]cn1)[C@@H](C)O)[C@@H](C)O)[C@@H](C)CC)C(=O)N[C@@H](C)C(=O)NCC(=O)NCC(=O)N1CCC[C@H]1C(=O)N[C@@H](CO)C(=O)N[C@@H](CO)C(=O)NCC(=O)N[C@@H](C)C(=O)N1CCC[C@H]1C(=O)N1CCC[C@H]1C(=O)N1CCC[C@H]1C(=O)N[C@@H](CO)C(N)=O [compound 11]	923 (≈ 222 µM)	969 (≈ 233 µM)	–
CC[C@H](C)[C@H](NC(=O)[C@H](CC(C)C)NC(=O)[C@H](Cc1c[nH]c2ccccc12)NC(=O)[C@H](CCC(=O)O)NC(=O)[C@@H](NC(=O)[C@H](Cc1ccccc1)NC(=O)[C@H](CC(=O)O)NC(=O)[C@H](CCCCN)NC(=O)[C@H](C)NC(=O)[C@H](CCCNC(=N)N)NC(=O)[C@H](CCC(N)=O)NC(=O)[C@H](CCC(=O)O)NC(=O)[C@H](CC(=O)O)NC(=O)[C@H](CC(C)C)NC(=O)[C@H](CCC(N)=O)NC(=O)[C@H](CCCCN)NC(=O)[C@H](CO)NC(=O)[C@H](CC(C)C)NC(=O)[C@H](CC(=O)O)NC(=O)[C@H](CO)NC(=O)[C@@H](NC(=O)[C@H](Cc1ccccc1)NC(=O)[C@@H](NC(=O)CNC(=O)[C@H](CCC(N)=O)NC(=O)C(C)(C)NC(=O)[C@@H](N)Cc1c[nH]cn1)[C@@H](C)O)[C@@H](C)O)[C@@H](C)CC)C(=O)N[C@@H](CO)C(=O)NCC(=O)NCC(=O)N1CCC[C@H]1C(=O)N[C@@H](CO)C(=O)N[C@@H](CO)C(=O)NCC(=O)N[C@@H](C)C(=O)N1CCC[C@H]1C(=O)N1CCC[C@H]1C(=O)N1CCC[C@H]1C(=O)N[C@@H](CO)C(N)=O [compound 12]	992 (≈ 238 µM)	972 (≈ 233 µM)	–
CC[C@H](C)[C@H](NC(=O)[C@H](CC(C)C)NC(=O)[C@H](Cc1c[nH]c2ccccc12)NC(=O)[C@H](CCC(=O)O)NC(=O)[C@@H](NC(=O)[C@H](Cc1ccccc1)NC(=O)[C@H](CC(=O)O)NC(=O)[C@](C)(CCCCN)NC(=O)[C@H](C)NC(=O)[C@H](CCCNC(=N)N)NC(=O)[C@H](CCC(N)=O)NC(=O)[C@H](CCC(=O)O)NC(=O)[C@H](CC(=O)O)NC(=O)[C@H](CC(C)C)NC(=O)[C@H](CCC(N)=O)NC(=O)[C@H](CCCCN)NC(=O)[C@H](CO)NC(=O)[C@H](CC(C)C)NC(=O)[C@H](CC(=O)O)NC(=O)[C@H](CO)NC(=O)[C@@H](NC(=O)[C@H](Cc1ccccc1)NC(=O)[C@@H](NC(=O)CNC(=O)[C@H](CCC(N)=O)NC(=O)C(C)(C)NC(=O)[C@@H](N)Cc1c[nH]cn1)[C@@H](C)O)[C@@H](C)O)[C@@H](C)CC)C(=O)N[C@@H](C)C(=O)NCC(=O)NCC(=O)N1CCC[C@H]1C(=O)N[C@@H](CO)C(=O)N[C@@H](CO)C(=O)NCC(=O)N[C@@H](C)C(=O)N1CCC[C@H]1C(=O)N1CCC[C@H]1C(=O)N1CCC[C@H]1C(=O)N[C@@H](CO)C(N)=O [compound 14]	–	–	1
